We go through twelve molecules from patent US7034041B2 (priority 2000, dated 2006).

Amino acid sequences for entries named in this document (tags omitted).
UniProt P33535, whole entry, looked up: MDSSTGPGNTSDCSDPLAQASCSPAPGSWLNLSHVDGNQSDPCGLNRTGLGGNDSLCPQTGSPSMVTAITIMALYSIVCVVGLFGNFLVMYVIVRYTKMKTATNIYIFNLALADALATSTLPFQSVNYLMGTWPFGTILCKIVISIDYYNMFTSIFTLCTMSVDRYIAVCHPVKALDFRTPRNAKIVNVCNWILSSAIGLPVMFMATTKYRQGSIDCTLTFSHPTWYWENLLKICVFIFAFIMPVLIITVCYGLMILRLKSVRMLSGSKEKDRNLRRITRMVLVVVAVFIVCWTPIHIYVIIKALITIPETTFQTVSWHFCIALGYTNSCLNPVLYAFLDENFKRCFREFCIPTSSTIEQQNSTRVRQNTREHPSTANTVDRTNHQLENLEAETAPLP
UniProt P35372, whole entry, looked up: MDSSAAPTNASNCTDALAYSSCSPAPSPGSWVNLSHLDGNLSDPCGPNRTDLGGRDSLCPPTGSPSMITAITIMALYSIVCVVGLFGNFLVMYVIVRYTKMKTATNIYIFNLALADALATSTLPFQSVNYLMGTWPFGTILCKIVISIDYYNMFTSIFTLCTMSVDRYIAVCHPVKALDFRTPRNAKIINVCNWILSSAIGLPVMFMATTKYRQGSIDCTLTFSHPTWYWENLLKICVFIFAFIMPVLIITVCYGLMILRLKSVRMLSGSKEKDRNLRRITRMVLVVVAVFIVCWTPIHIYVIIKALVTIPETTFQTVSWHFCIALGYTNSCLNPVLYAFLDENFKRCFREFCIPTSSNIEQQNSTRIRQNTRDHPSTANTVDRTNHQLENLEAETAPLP

Like-named read-outs stand apart in the source and are kept apart here.

The subject of assay [1] is phenylquinone-induced writhing reactions. Nature of the assay: Phenylquinone-induced writhing test in mice. Conditions: 10 mg/kg i.v., phenylquinone i.p. 10 minutes after substance.
The target of another assay is μ-opiate receptor (Rattus norvegicus, UniProt P33535). Nature of the assay: μ-opiate receptor binding on rat brain membrane homogenates, tritiated naloxone. The note with it: rat brain homogenate; for Ki: read-out: Naloxone Ki, 1 nmole/l tritiated naloxone; for Naloxone (value printed as %): tritiated naloxone, test concentration not given.
In assay [2] the test system is (+)-MK801 binding site of the ionotropic NMDA receptor. Nature of the assay: NMDA receptor binding on rat brain membrane homogenates, (3H)-(+)-MK801. Conditions: rat brain homogenate.
Assay [3] deals with wind-up phenomenon (increased firing rate of spinal neurons). Nature of the assay: Inhibition of the wind-up phenomenon in rats. The note with it: 21.5 mg/kg i.v.
The target in a further assay is human μ-opiate receptor (Homo sapiens, UniProt P35372). As to the kind of experiment: Human μ-opiate receptor binding, CHO-K1 membrane preparation, [3H]-diprenorphine, SPA. Conditions: read-out: Human μ-OR Binding Ki; CHO-K1 membranes, 1 nmole/l [3H]-diprenorphine.
[4] abbreviates: read-out: MK801 Ki, 1 nmole/l (3H)-(+)-MK801, Table 2.

For the molecule `Cl.Fc1cccc(C2=CCN(C3(c4ccccc4)CCCCC3)CC2)c1`, the “% Inhibition of the Writhing Reactions” value in assay [1] amounted to 98%. For `Fc1ccc(C2=CCN(C3(c4ccccc4)CCCCC3)CC2)cc1`, the Ki (in general, the equilibrium dissociation constant of an inhibitor or competing ligand from its target) is 60 nM at μ-opiate receptor and 1700 nM in assay [2] (setting [4]).

As for `COc1ccc(C2=CCN(C3(c4ccccc4)CCCCC3)CC2)cc1`, the Ki in assay [2] (setting [4]) came to 11100 nM. As to `COc1ccccc1C1=CCN(C2(c3ccccc3)CCCCC2)CC1.Cl`, the “Naloxone (value printed as %)” value at μ-opiate receptor was 50%.

Take `COc1cccc(C2=CCN(C3(c4ccccc4)CCCCC3)CC2)c1`: the Ki on μ-opiate receptor worked out at 800 nM; in assay [2] (setting [4]), 1600 nM. The like results for `Cc1ccc(C2=CCN(C3(c4ccccc4)CCCCC3)CC2)cc1` were, in that order, 300 nM and 4500 nM.

Regarding `Cl.Fc1ccc(C2=CCN(C3(c4ccccc4)CCCCC3)CC2)cc1`, the “% Inhibition of the Writhing Reactions” value in assay [1] stood at 100%. `Fc1cccc(C2=CCN(C3(c4ccccc4)CCCCC3)CC2)c1`: the Ki at μ-opiate receptor is 200 nM; in assay [2] (setting [4]), 3900 nM. The like results for `Cc1cccc(C2=CCN(C3(c4ccccc4)CCCCC3)CC2)c1` were, in that order, 400 nM and 1400 nM. On to `COc1ccc(C2=CCN(C3(c4ccccc4)CCCCC3)CC2)cc1.Cl`, for which the “Naloxone (value printed as %)” value at μ-opiate receptor worked out at 20%.

Regarding `COc1ccccc1C1=CCN(C2(c3ccccc3)CCCCC2)CC1`, in assay [2] (setting [4]), the inhibitory constant (Ki) was determined as 5200 nM. Take `Fc1ccccc1C1=CCN(C2(c3ccccc3)CCCCC2)CC1`: the “inhibition of the wind-up phenomenon” value in assay [3] is recorded as 70%. The Ki at μ-opiate receptor was found to be 240 nM; at human μ-opiate receptor, 210 nM; in assay [2] (read-out: MK801 Binding Ki, (3H)-(+)-MK801, Table 3), 570 nM; in assay [2] (setting [4]), 600 nM. Moreover, in assay [1], the “% Inhibition of the Writhing Reactions” value is 72%.
